For this assay, the target named is BRD4 (Homo sapiens (Human), UniProt O60885). Briefly: biochemical. The conditions noted are these: BRD4 IC50 (μM gmean).

In turn, `COC(=O)N1c2ccc3c(nc(Cc4ccc(Cl)c(OC)n4)n3[C@H]3CC[C@H](C(=O)O)CC3)c2CC[C@@H]1C` [Example 518] gave an IC50 of 0.1 to 1 µM.

Take `COC(=O)N1c2ccc3c(nc(C(O)c4ccc(Cl)cc4)n3C3CCCC(C(=O)O)C3)c2CC[C@@H]1C` (stereo partly drawn) [Example 501, (1R,3R)-3-[(7S)-2-[(S)-(4-chlorophenyl)(hydroxy)methyl]-6-(methoxycarbonyl)-7-methyl-3H,6H,7H,8H,9H-imidazo[4,5-f]quinolin-3-yl]cyclohexane-1-carboxylic Acid]: the IC50 is 0.1 to 1 µM.

Turning to `COC(=O)N1c2ccc3c(nc(Cc4cnc5[nH]ccc5n4)n3[C@@H]3CCC[C@@H](C(=O)O)C3)c2CC[C@@H]1C` [Example 465], the IC50 was in the range of 0.1 to 1 µM.

On to `COC(=O)N1c2ccc3c(nc([C@H](O)c4ccc(Cl)cc4)n3[C@@H]3CCC[C@@H](C(=O)O)C3)c2CC[C@@H]1C` [Example 413, (1R,3R)-3-[(7S)-2-[(R)-(4-chlorophenyl)(hydroxy)methyl]-6-(methoxycarbonyl)-7-methyl-3H,6H,7H,8H,9H-imidazo[4,5-f]quinolin-3-yl]cyclohexane-1-carboxylic Acid], for which the IC50 fell in the range of 0.1 to 1 µM.

For `COC(=O)N1c2ccc3c(nc(CCC4CCCCC4)n3[C@@H]3CCC[C@@H](C(=O)O)C3)c2CC[C@@H]1C` [Example 547], the IC50 lay in the range of 0.1 to 1 µM.

Regarding `COC(=O)N1c2ccc3c(nc(CCn4cccn4)n3CCNCc3ccn(C)n3)c2CC[C@@H]1C` [Example 290, methyl (S)-2-(2-(1H-pyrazol-1-yl)ethyl)-7-methyl-3-(2-(((1-methyl-1H-pyrazol-3-yl)methyl)amino)ethyl)-3,7,8,9-tetrahydro-6H-imidazo[4,5-f]quinoline-6-carboxylate], the IC50 was 1 to 1000 µM.

The compound `COC(=O)N1c2ccc3c(nc(Nc4cccc(C)c4)n3[C@H]3CC[C@H](C(=O)O)CC3)c2CC[C@@H]1C` [Example 866] had an IC50 of 0.1 to 1 µM.

For the compound `COC(=O)N1c2ccc3c(nc(C(C)Oc4ccccc4)n3C3CCCC(C(=O)O)C3)c2CC[C@@H]1C` (stereo partly shown) [Example 496], the IC50 lay within 0.1 to 1 µM.

The compound `COC(=O)N1c2ccc3c(nc(C(O)c4cccc5c4OCC5)n3C3CCCC(C(=O)O)C3)c2CC[C@@H]1C` (stereo partly shown) [Example 440] gave an IC50 of 0.1 to 1 µM.

`COC(=O)N1c2ccc3c(nc(Cc4cncc(OC(C)C)n4)n3[C@@H]3CCC[C@@H](C(=O)O)C3)c2CC[C@@H]1C` [Example 693] yielded an IC50 of 0.1 to 1 µM.

`COC(=O)N1c2ccc3c(nc(C(F)(F)F)n3Cc3ccccc3)c2CC[C@@H]1C` [Example 252]: the IC50 was 0.1 to 1 µM.

In the case of `COC(=O)N1c2ccc3c(nc(C(O)c4ccc5ocnc5c4)n3C3CCCC(C(=O)O)C3)c2CC[C@@H]1C` (stereo partly shown) [Example 458], the IC50 was 0.1 to 1 µM.

The compound `COC(=O)N1c2ccc3c(nc(Nc4ccc5cn[nH]c5c4)n3[C@H]3CC[C@H](C(=O)O)CC3)c2CC[C@@H]1C` [Example 853] returned an IC50 of 0.1 to 1 µM.

In turn, `COC(=O)N1c2ccc3c(nc(C(O)c4cc(Cl)cc(OC)c4)n3C3CCCC(C(=O)O)C3)c2CC[C@@H]1C` (stereo partly shown) [Example 421] showed an IC50 of 0.1 to 1 µM.

On to `COC(=O)N1c2ccc3c(nc(CCC4CCCO4)n3C3CCCC(C(=O)O)C3)c2CC[C@@H]1C` (stereo partly shown) [Example 705], for which the IC50 was 0.1 to 1 µM.

Consider `COC(=O)N1c2ccc3c(nc(Cc4ccc5c(ccn5C)c4)n3[C@H]3CC[C@H](C(=O)O)CC3)c2CC[C@@H]1C` [Example 507], for which the IC50 lay within 0.1 to 1 µM.

With `COC(=O)N1c2ccc3c(nc(Nc4cccc(Cl)c4)n3[C@H]3CC[C@H](C(=O)O)CC3)c2CC[C@@H]1C` [Example 815], the IC50 was in the range of 0.1 to 1 µM.

Take `COC(=O)N1c2ccc3c(nc(Nc4cc(C(C)(C)C)[nH]n4)n3[C@H]3CC[C@H](C(=O)O)CC3)c2CC[C@@H]1C` [Example 796]: the IC50 lay in the range of 0.1 to 1 µM.

Turning to `COC(=O)N1c2ccc3c(nc(CCC4CCCCO4)n3C3CCCC(C(=O)O)C3)c2CC[C@@H]1C` (stereo partly shown) [Example 667], the IC50 was 0.1 to 1 µM.

With `COC(=O)N1c2ccc3c(nc(Cc4ccc(Cl)c(OC)n4)n3[C@@H]3CCC[C@@H](C(=O)O)C3)c2CC[C@@H]1C` [Example 410], the IC50 lay in the range of 0.1 to 1 µM.

With `COC(=O)N1c2ccc3c(nc(Nc4ccc(C)cc4)n3[C@@H]3CCC[C@@H](C(=O)O)C3)c2CC[C@@H]1C` [Example 809], the IC50 lay within 0.1 to 1 µM.

`COC(=O)N1c2ccc3c(nc(C(O)c4ccc(C)c(F)c4)n3C3CCCC(C(=O)O)C3)c2CC[C@@H]1C` (stereo partly shown) [Example 414] had an IC50 of 0.1 to 1 µM.

Compound `COC(=O)N1c2ccc3c(nc(CCc4ccccc4)n3[C@H]3CC[C@H](C(N)=O)CC3)c2CC[C@@H]1C` [Example 76] yielded an IC50 of 0.1 to 1 µM.

With `COC(=O)N1c2ccc3c(nc(Cn4ccc5nccnc54)n3[C@@H]3CCC[C@@H](C(=O)O)C3)c2CC[C@@H]1C` [Example 579], the IC50 is 0.1 to 1 µM.

Take `COC(=O)N1c2ccc3c(nc(CCN4CCCCC4=O)n3[C@@H]3CCC[C@@H](C(=O)O)C3)c2CC[C@@H]1C` [Example 890]: the IC50 was in the range of 0.1 to 1 µM.

In turn, `COC(=O)N1c2ccc3c(nc(C4(c5cncc(C6CC6)n5)CC4)n3[C@@H]3CCC[C@@H](C(=O)O)C3)c2CC[C@@H]1C` [Example 530] displayed an IC50 of 0.1 to 1 µM.

The compound `COC(=O)N1c2ccc3c(nc(OCCn4cc(Cl)cn4)n3[C@H]3CC[C@H](C(=O)O)CC3)c2CC[C@@H]1C` [Example 703] yielded a concentration for half-maximal inhibition (IC50) of 0.1 to 1 µM.

As to `COC(=O)N1c2ccc3c(nc(CN4c5ccccc5CS4(=O)=O)n3[C@@H]3CCC[C@@H](C(=O)O)C3)c2CC[C@@H]1C` [Example 739], the IC50 lay within 0.1 to 1 µM.

On to `COC(=O)N1c2ccc3c(nc(C(C)Oc4ccccc4)n3C3CCC[C@@H](C(=O)O)C3)c2CC[C@@H]1C` (stereo partly shown) [Example 411], for which the IC50 is 0.1 to 1 µM.

`COC(=O)N1c2ccc3c(nc(CN4Cc5ccccc5CC4=O)n3[C@@H]3CCC[C@@H](C(=O)O)C3)c2CC[C@@H]1C` [Example 684] returned an IC50 of 0.1 to 1 µM.

In turn, `COC(=O)N1c2ccc3c(nc(C(O)c4cccc(Cl)c4)n3C3CCCC(C(=O)O)C3)c2CC[C@@H]1C` (stereo partly shown) [Example 423] gave an IC50 of 0.1 to 1 µM.

In turn, `COC(=O)N1c2ccc3c(nc(C(O)c4ccc5oc(C)nc5c4)n3C3CCCC(C(=O)O)C3)c2CC[C@@H]1C` (stereo partly shown) [Example 451] registered an IC50 of 0.1 to 1 µM.

Consider `COC(=O)N1c2ccc3c(nc(Cc4ccccc4)n3[C@@H]3CC[C@@H](C(=O)O)C(C)(C)C3)c2CC[C@@H]1C` (single isomer, unassigned) [Example 50], for which the IC50 lay in the range of 1 to 1000 µM.

In turn, `COC(=O)N1c2ccc3c(nc(C(C)Cc4ccc(F)c(F)c4)n3C3CCNCC3)c2CC[C@@H]1C` (stereo partly shown) [Example 626] registered an IC50 of 0.1 to 1 µM.

`COC(=O)N1c2ccc3c(nc(C(O)c4cc(F)cc(F)c4)n3C3CCCC(C(=O)O)C3)c2CC[C@@H]1C` (stereo partly shown) [Example 488]: the IC50 lay within 0.1 to 1 µM.

With `COC(=O)N1c2ccc3c(nc(C(O)c4ccc5[nH]ccc5c4)n3C3CCCC(C(=O)O)C3)c2CC[C@@H]1C` (stereo partly shown) [Example 606], the IC50 lay within 0.01 to 0.1 µM.

`COC(=O)N1c2ccc3c(nc(CCC4CCC4)n3[C@@H]3CCC[C@@H](C(=O)O)C3)c2CC[C@@H]1C` [Example 570]: the IC50 lay in the range of 0.1 to 1 µM.

`COC(=O)N1c2ccc3c(nc(Nc4ccc(Cl)cc4)n3[C@H]3CC[C@H](C(=O)O)CC3)c2CC[C@@H]1C` [Example 865]: the IC50 is 0.1 to 1 µM.

As to `COC(=O)N1c2ccc3c(nc([C@H](C)Cc4ccccc4)n3[C@H]3CC[C@H](C(=O)O)CC3)c2CC[C@@H]1C` [Example 60, trans-4-[(7S)-6-(methoxycarbonyl)-7-methyl-2-[(2R)-1-phenylpropan-2-yl]-3H,6H,7H,8H,9H-imidazo[4,5-f]quinolin-3-yl]cyclohexane-1-carboxylic acid], the IC50 lay in the range of 1 to 1000 µM.

`COC(=O)N1c2ccc3c(nc(C(NC(C)=O)c4ccccc4)n3C3CCCC(C(=O)O)C3)c2CC[C@@H]1C` (stereo partly shown) [Example 439] gave an IC50 of 0.1 to 1 µM.

The compound `COC(=O)N1c2ccc3c(nc(Nc4ccc(C#N)cc4)n3[C@H]3CC[C@H](C(=O)O)CC3)c2CC[C@@H]1C` [Example 857] returned an IC50 of 0.1 to 1 µM.

In turn, `COC(=O)N1c2ccc3c(nc(C4(Nc5ccccn5)CC4)n3[C@@H]3CCC[C@@H](C(=O)O)C3)c2CC[C@@H]1C` [Example 422] gave an IC50 of 0.1 to 1 µM.

With `COC(=O)N1c2ccc3c(nc(Nc4ccc(F)c(OC)c4)n3[C@@H]3CCC[C@@H](C(=O)O)C3)c2CC[C@@H]1C` [Example 799], the 50% inhibitory concentration (IC50) lay in the range of 0.1 to 1 µM.

Take `COC(=O)N1c2ccc3c(nc(C(C)Cn4ccc(Cl)n4)n3C3CCC(C(=O)O)CC3)c2CC[C@@H]1C` (stereo partly shown) [Example 457]: the half-maximal inhibitory concentration (IC50) lay within 0.1 to 1 µM.

Compound `COC(=O)N1c2ccc3c(nc(N(C)Cc4ccccc4)n3[C@@H]3CCC[C@@H](C(=O)O)C3)c2CC[C@@H]1C` [Example 571] showed an IC50 of 0.1 to 1 µM.

The compound `COC(=O)N1c2ccc3c(nc(Cc4cc5ccccc5[nH]4)n3[C@H]3CC[C@H](C(=O)O)CC3)c2CC[C@@H]1C` [Example 600] yielded an IC50 of 0.1 to 1 µM.

As for `COC(=O)N1c2ccc3c(nc(Nc4cccc(OC)c4)n3[C@H]3CC[C@H](C(=O)O)CC3)c2CC[C@@H]1C` [Example 776], the IC50 fell in the range of 0.1 to 1 µM.

With `COC(=O)N1c2ccc3c(nc(C(O)c4cc(Cl)ccc4OC)n3C3CCCC(C(=O)O)C3)c2CC[C@@H]1C` (stereo partly shown) [Example 442], the IC50 is 0.1 to 1 µM.

`COC(=O)N1c2ccc3c(nc(C(O)c4cc(F)c5c(c4)CCO5)n3C3CCCC(C(=O)O)C3)c2CC[C@@H]1C` (stereo partly shown) [Example 427] came in with an IC50 of 0.1 to 1 µM.

For the compound `COC(=O)N1c2ccc3c(nc(Nc4cccc(C)c4)n3[C@@H]3CCC[C@@H](C(=O)O)C3)c2CC[C@@H]1C` [Example 847], the IC50 lay within 0.1 to 1 µM.

Compound `COC(=O)N1c2ccc3c(nc(C(C)CN4CCCCC4=O)n3C3CCCC(C(=O)O)C3)c2CC[C@@H]1C` (stereo partly shown) [Example 683] returned an IC50 of 0.1 to 1 µM.

Consider `COC(=O)N1c2ccc3c(nc(Cc4cncc(OC(C)(C)C)n4)n3[C@@H]3CCC[C@@H](C(=O)O)C3)c2CC[C@@H]1C` [Example 586], for which the IC50 lay within 0.1 to 1 µM.

Regarding `COC(=O)N1c2ccc3c(nc(OCCC4CCCC4)n3[C@H]3CC[C@H](C(=O)O)CC3)c2CC[C@@H]1C` [Example 766], the IC50 is 0.1 to 1 µM.

In turn, `COC(=O)N1c2ccc3c(nc(Nc4ccc5c(C)n[nH]c5c4)n3[C@H]3CC[C@H](C(=O)O)CC3)c2CC[C@@H]1C` [Example 861] showed an IC50 of 0.1 to 1 µM.

Turning to `COC(=O)N1c2ccc3c(nc(C(C)OC4CCCCC4)n3C3CCC(C(=O)O)CC3)c2CC[C@@H]1C` (stereo partly shown) [Example 685], the IC50 is 0.1 to 1 µM.

Usually IC50 stands for the point on the concentration scale where inhibition reaches its midpoint. Low values mean greater potency, high ones weaker potency.

The values above are taken from patent US11292791B2 (priority 2017, dated 2022).
